Laboratory results reported in ChEMBL document CHEMBL6078683, “Discovery of MT-7117 (Dersimelagon Phosphoric Acid): A Novel, Potent, Selective, and Nonpeptidic Orally Available Melanocortin 1 Receptor Agonist” (J Med Chem, 2024).

Columns and labels:
Assay type in all cases: functional, organism-based
Cynomolgus monkey [1] = experiment: Induction of pigmentation in cynomolgous monkey at 30 mg/kg, po measured for 1 week; details: Macaca fascicularis, time 1.0 weeks
Cynomolgus monkey [2] = experiment: Induction of pigmentation in cynomolgous monkey at 10 mg/kg, po measured for 3 weeks; details: Macaca fascicularis
Cynomolgus monkey [3] = experiment: Induction of pigmentation in cynomolgous monkey at 1 to 3 mg/kg, po measured for 4 weeks; details: Macaca fascicularis, dose 1-3 mg/kg
Cynomolgus monkey [4] = experiment: Induction of pigmentation in cynomolgous monkey at 1 to 3 mg/kg, po for 4 weeks followed by treatment discontinuation measured after 2 weeks; details: Macaca fascicularis, dose 1-3 mg/kg
Cynomolgus monkey [5] = experiment: Induction of pigmentation in cynomolgous monkey at 10 mg/kg, po for 4 weeks followed by treatment discontinuation measured after 4 weeks; details: Macaca fascicularis
Cynomolgus monkey [6] = experiment: Induction of pigmentation in cynomolgous monkey at 30 mg/kg, po for 3 weeks followed by treatment discontinuation measured after 16 weeks; details: Macaca fascicularis

Structure (SMILES): COC[C@H]1CN(C(=O)[C@]2(F)CN(C3CCCC3)C[C@H]2c2ccc(OC)cc2)C[C@@H]1c1ccc(C(F)(F)F)cc1N1CCC(C(=O)O)CC1
- Activity (Cynomolgus monkey [1]): Active
- Activity (Cynomolgus monkey [2]): Active
- Activity (Cynomolgus monkey [3]): Active
- Activity (Cynomolgus monkey [4]): inactive
- Activity (Cynomolgus monkey [5]): inactive
- Activity (Cynomolgus monkey [6]): inactive

Calls of active or inactive are those of the source. No cut-off for these calls is given here.
